The values below come from US5563176A (priority 1994, dated 1996).

One experiment has as its system solid tumor systems. The settings on record: NCI DCT; cited from earlier work.
In another experiment the test system is CEM mdr variants. Put plainly: resistance of CEM mdr variants. The settings on record: previous studies.

Take `CC1=C2C(=CC(C)(C)C2O)C(=O)[C@](C)(O)C12CC2` (some centres unmarked) [Illudin M, reference compound]: the therapeutic index result with solid tumor systems is reported as “low therapeutic index”.

On to `CC1=C2C(=C[C@@](C)(CO)C2O)C(=O)[C@](C)(O)C12CC2` (some centres unmarked) [Illudin S], for which the “resistance of CEM mdr variants” value with CEM mdr variants is given as “not resistant”.
